Experiment [1] deals with Aβ_(1-28) peptide. Description: SPR. On the technique in general: In SPR one partner is held on a chip, and binding of the other changes the refractive index at the surface.
The target in experiment [2] is ^chaducanumab (murine chimeric IgG2a/kappa version of aducanumab) (human | murine). Put plainly: ELISA; competition: oligomeric Aβ1-42 coated at 2.5 μg/mL; 0.4 nM antibody added with serially diluted monomeric Aβ1-40, 2 h at room temperature; HRP anti-mouse detection. On the technique in general: An ELISA detects its analyte on a solid surface through an enzyme-linked reagent.

Take 3D6: in experiment [1], the Kd (commonly a measure of binding affinity in units of concentration) amounted to 3.5 nM and the koff (usually a measure of how fast the partners let go of each other) was found to be 0.0011 s⁻¹. For monomeric Aβ_(1-40) peptide, the IC50 (as a rule, the concentration that inhibits the measured activity by half) in experiment [2] is greater than 1000 nM.

(Values after PMC5913127.)
